Laboratory results published in PMC7723054.
This is one part of the list.

T1: LIN28A (human?, UniProt Q9H9Z2 1-209)
T1 sequence: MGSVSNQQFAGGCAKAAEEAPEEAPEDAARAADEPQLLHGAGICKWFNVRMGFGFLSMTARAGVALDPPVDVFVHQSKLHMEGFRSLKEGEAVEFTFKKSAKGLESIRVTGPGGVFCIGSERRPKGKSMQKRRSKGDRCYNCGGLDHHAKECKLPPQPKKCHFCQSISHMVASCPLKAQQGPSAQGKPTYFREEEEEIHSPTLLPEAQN

T2: CIRBP (Homo sapiens, UniProt Q14011 1-172)
T2 sequence: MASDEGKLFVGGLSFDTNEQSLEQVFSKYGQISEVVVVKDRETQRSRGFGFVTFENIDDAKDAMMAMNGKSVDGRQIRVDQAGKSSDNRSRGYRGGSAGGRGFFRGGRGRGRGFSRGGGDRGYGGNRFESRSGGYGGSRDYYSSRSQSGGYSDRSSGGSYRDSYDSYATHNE

T3: DHX36 (Homo sapiens, UniProt Q9H2U1 1-1008)
T3 sequence: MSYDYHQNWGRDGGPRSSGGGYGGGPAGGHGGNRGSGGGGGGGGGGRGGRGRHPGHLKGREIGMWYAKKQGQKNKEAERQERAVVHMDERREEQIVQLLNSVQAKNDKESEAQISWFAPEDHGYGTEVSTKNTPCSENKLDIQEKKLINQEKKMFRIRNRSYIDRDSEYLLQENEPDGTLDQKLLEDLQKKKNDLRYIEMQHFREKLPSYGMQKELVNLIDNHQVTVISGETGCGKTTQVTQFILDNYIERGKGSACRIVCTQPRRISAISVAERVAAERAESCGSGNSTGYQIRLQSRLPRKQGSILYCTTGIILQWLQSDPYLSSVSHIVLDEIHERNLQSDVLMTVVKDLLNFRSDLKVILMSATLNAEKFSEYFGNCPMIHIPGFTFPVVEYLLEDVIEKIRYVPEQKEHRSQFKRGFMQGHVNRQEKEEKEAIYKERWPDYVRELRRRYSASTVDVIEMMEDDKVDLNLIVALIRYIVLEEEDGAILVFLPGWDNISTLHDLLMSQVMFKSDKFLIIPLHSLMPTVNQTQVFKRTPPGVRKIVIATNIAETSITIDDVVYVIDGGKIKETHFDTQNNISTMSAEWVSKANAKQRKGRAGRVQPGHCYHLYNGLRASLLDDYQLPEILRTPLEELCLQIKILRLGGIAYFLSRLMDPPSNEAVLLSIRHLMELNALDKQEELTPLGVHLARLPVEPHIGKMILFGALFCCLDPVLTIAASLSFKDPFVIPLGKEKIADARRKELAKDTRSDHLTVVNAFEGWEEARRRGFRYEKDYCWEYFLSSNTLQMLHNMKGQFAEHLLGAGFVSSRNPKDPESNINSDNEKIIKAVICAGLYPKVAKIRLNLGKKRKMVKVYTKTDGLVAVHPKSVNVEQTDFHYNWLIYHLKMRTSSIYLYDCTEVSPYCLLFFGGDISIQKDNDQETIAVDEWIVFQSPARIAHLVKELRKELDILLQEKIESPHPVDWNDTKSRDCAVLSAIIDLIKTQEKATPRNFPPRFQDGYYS

B1: hsa-mir-4710 (structured_RNA)
RNA: GGGAGGUUACUAGGCAAGCGCUAACUUUGGUGUACGAAGUUUCAGCGGUUCUUCCCGAAGCGCUGAAGCUUCGUGCAC
B2: hsa-mir-3691 (structured_RNA)
RNA: GGGACUGGGGCUGCUCGACUUAAACGUAGGUGUACGAAGUUUCAGCCGGUACCCACUGCUGAGGGUGGGGACCAGCUGAAGCUUCGUGCAC
B3: hsa-mir-371a (structured_RNA)
RNA: GGGAAAUUAGGUCGAGCAACGUCACUUUGGUGUACGAAGUUUCAGCCACUUUCUGCUCUCUGGUGAAAGUGGCUGAAGCUUCGUGCAC
B4: hsa-mir-3145 (structured_RNA)
RNA: GGGACAGGUACAGAUAAAGGCAACUACCGGUGUACGAAGUUUCAGCCUCAUUGUUGAAUGGAAUGAGAUGCUGAAGCUUCGUGCAC
B5: hsa-mir-4273 (structured_RNA)
RNA: GGGAAAAGCUGGUAGCCCCGAAUCAGUCGGUGUACGAAGUUUCAGCCAGUAAGCCUUGACUUAUGGCUAAAUGCUUCGCUGAAGCUUCGUGCAC
B6: hsa-mir-4421 (structured_RNA)
RNA: GGGAAAUCCUGCCGUGAGUUAGCCACUCGGUGUACGAAGUUUCAGCAGUUGAACACUUGUUGGGACAACCUGCUGAAGCUUCGUGCAC
B7: hsa-mir-4804 (structured_RNA)
RNA: GGGAACGGACGCACUAGAAGACCGCUUUGGUGUACGAAGUUUCAGCAGCAAGGUGCGUCGUAUCUUGCUGCUGAAGCUUCGUGCAC
B8: hsa-mir-298 (structured_RNA)
RNA: GGGACUAGGGUGCUUGACAAUAUACCCCGGUGUACGAAGUUUCAGCCCAGUGGUUUUCCUUGACUGUGGCUGAAGCUUCGUGCAC
B9: hsa-mir-382 (structured_RNA)
RNA: GGGAAAAUGACACUCGGAAGUCGACCCCGGUGUACGAAGUUUCAGCGAUUCGCUUUACUUAUGACGAAUCGCUGAAGCUUCGUGCAC
B10: hsa-mir-924 (structured_RNA)
RNA: GGGAACGGGAACUAGUGUUGCUCCUUGAGGUGUACGAAGUUUCAGCUUGCUUAAGGCUGAAGCUUCGUGCAC
B11: hsa-mir-4765 (structured_RNA)
RNA: GGGAACAGGGAGCACGAUACCUGUUUCCGGUGUACGAAGUUUCAGCCUCAGCCUGGAAAAAGCUGAGGCUGAAGCUUCGUGCAC
B12: hsa-mir-320c-1 (structured_RNA)
RNA: GGGAUGGGAGGGCGAAGUUCCAUAAGAGGGUGUACGAAGUUUCAGCUCUUCCCAGAGUCAGGAAAAGCUGAAGCUUCGUGCAC
B13: hsa-mir-6073 (structured_RNA)
RNA: GGGAAGAACCGUCAGCUGGGCUCAAAUGGGUGUACGAAGUUUCAGCUGCCUCUCGGGGUGCUGAAGCUUCGUGCAC

Each binder was assayed against T1, LIN28A (assay: FOREST: bead pull-down of RNA structure library v1, barcode microarray; U1A/LIN28A: 20 mM HEPES pH 7.5, 80 mM KCl, 20 mM NaCl, 10% glycerol, 2 mM DTT, 0.1 ug/uL BSA, 4 C; BG4/CIRBP/DHX36: 10 mM Tris-HCl pH 7.5, 100 mM KCl (or LiCl),; high values mean tight binding).
Binder B1 has a binding signal of -1.15 z-score.
With B2 the binding signal was -1.12 z-score.
In the case of B3, the binding signal is reported as -1.13 z-score.
B4 was tested, and the binding signal was -1.14 z-score.
For B5, the binding signal was -1.15 z-score.
In the case of B6, the binding signal is reported as -1.15 z-score.
B7 gave a binding signal of -1.14 z-score.
In the case of B8, the binding signal is reported as -1.13 z-score.
B9 showed a binding signal of -1.13 z-score.
Binder B10 has a binding signal of -1.15 z-score.
With B11 the binding signal was -1.13 z-score.
Binder B12 has a binding signal of -1.13 z-score.
B13 was tested, and the binding signal was -1.13 z-score.

What follows are binders tested against T2, CIRBP in the same assay as above.
B1 gave a binding signal of 0.0718 z-score.
In the case of B2, the binding signal is reported as -1.51 z-score.
Binder B3 has a binding signal of 0.229 z-score.
In the case of B4, the binding signal is reported as 0.257 z-score.
Work on B5 yielded a binding signal of 0.122 z-score.
Binder B6 has a binding signal of -1.03 z-score.
Binder B7 has a binding signal of -0.00665 z-score.
In the case of B8, the binding signal is reported as -2.78 z-score.
B9 showed a binding signal of -1.51 z-score.
For B10, the binding signal was -0.314 z-score.
B11 gave a binding signal of -1.69 z-score.
Work on B12 yielded a binding signal of -0.787 z-score.
In the case of B13, the binding signal is reported as -0.14 z-score.

The binders below were run against T3, DHX36 in the same assay as above.
B1 was tested, and the binding signal was -0.361 z-score.
B2 gave a binding signal of -0.23 z-score.
B3 gave a binding signal of -0.493 z-score.
In the case of B4, the binding signal is reported as -0.0115 z-score.
Work on B5 yielded a binding signal of -0.394 z-score.
B6 gave a binding signal of -0.429 z-score.
B7 gave a binding signal of -0.155 z-score.
For B8, the binding signal was 0.0667 z-score.
For B9, the binding signal was -1.11 z-score.
For B10, the binding signal was -0.315 z-score.
B11 showed a binding signal of 0.913 z-score.
B12 showed a binding signal of -0.16 z-score.
For B13, the binding signal was -0.265 z-score.
